pIC50: −log10 of the molar value.

The chains behind the UniProt entries cited, without tags or fusion partners. Residues count along the entry.
UniProt O00763, 27-2458: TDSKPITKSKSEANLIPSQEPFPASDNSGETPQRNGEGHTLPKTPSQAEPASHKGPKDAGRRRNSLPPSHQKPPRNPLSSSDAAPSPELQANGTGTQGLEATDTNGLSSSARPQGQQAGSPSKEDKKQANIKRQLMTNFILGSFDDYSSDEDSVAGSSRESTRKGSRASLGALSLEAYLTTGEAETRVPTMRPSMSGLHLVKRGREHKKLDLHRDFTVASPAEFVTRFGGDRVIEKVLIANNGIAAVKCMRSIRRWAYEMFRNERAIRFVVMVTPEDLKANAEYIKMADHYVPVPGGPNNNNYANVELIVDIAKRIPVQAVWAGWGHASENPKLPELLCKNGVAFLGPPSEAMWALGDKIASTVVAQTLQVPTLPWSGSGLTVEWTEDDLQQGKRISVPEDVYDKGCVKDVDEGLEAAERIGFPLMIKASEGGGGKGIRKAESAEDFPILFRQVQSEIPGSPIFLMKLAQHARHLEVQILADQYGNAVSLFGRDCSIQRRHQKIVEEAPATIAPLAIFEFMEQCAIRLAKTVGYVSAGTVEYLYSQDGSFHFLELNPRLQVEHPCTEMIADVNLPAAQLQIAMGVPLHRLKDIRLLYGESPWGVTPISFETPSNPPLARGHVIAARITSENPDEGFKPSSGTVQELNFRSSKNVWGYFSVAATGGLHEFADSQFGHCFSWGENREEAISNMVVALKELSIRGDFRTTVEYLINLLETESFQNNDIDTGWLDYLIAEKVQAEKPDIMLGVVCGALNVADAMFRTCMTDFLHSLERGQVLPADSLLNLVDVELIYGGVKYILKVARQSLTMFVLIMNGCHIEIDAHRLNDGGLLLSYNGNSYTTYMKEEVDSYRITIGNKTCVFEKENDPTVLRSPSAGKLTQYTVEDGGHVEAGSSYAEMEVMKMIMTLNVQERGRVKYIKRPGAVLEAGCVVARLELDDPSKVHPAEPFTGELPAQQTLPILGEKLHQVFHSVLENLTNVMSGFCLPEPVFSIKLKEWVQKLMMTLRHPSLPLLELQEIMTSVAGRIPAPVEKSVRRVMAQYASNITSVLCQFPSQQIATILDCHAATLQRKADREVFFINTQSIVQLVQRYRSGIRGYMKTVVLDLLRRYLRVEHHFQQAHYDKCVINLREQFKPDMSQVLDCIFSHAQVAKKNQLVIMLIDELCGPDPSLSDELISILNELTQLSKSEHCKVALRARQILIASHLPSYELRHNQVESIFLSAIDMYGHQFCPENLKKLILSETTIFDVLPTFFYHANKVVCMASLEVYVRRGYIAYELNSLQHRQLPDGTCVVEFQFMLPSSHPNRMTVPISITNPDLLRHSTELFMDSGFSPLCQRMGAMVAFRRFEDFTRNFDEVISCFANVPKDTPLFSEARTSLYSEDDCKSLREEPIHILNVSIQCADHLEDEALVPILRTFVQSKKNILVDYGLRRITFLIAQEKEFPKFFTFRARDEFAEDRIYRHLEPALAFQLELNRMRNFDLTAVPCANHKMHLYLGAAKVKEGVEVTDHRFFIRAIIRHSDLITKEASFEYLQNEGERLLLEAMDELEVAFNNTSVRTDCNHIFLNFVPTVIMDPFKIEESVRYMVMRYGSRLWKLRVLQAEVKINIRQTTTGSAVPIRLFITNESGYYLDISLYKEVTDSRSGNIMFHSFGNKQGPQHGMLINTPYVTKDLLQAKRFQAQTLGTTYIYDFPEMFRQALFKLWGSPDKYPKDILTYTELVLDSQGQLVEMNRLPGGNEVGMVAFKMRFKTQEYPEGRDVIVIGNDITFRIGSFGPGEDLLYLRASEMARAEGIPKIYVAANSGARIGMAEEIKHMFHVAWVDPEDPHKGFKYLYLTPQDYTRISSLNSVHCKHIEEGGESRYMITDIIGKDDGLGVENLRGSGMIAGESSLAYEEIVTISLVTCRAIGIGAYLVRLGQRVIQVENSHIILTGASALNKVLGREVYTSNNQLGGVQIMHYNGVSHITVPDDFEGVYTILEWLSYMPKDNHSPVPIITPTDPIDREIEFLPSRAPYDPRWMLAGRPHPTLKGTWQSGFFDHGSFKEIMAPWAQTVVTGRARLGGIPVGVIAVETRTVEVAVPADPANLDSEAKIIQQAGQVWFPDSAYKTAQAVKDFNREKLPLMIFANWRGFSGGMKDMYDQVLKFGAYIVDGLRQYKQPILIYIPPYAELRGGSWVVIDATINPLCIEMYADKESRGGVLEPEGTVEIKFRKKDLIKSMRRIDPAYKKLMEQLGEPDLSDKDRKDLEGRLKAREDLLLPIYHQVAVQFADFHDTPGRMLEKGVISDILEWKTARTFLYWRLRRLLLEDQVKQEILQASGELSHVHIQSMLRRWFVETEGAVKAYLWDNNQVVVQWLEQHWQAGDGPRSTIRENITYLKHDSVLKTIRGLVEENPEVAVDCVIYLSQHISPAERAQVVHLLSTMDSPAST

The target of the assay is recombinant human ACC2 (Homo sapiens (Human), UniProt O00763). As to the kind of experiment: Measurement of inhibitory activity of human ACC2 (MALDI-TOF MS). It is filed as biochemical. To be noted: read-out: IC50 hACC2. The text has this: A cDNA encoding human ACC2 protein (27 amino acid residues to 2458 amino acid residues from the N-terminus) was cloned from a human kidney cDNA library (Clontech Laboratories, Inc.), a His-tag sequence was introduced at the 5′ end, and then inserted into pFastBac1 (Invitrogen). A recombinant baculovirus was produced in accordance with the protocol for a Bac-to-Bac baculovirus expression system (Invitrogen), and Sf-9 cells were infected therewith to express human ACC2 protein. The recovered cells were crushed, filtered through a filter, and then subjected to Ni affinity chromatography and anion exchange chromatography. Fractions containing human ACC2 protein were collected to obtain recombinant human ACC2.
The recombinant human ACC1 and the recombinant human ACC2 obtained from the above Preparation Examples were preincubated in an assay buffer (50 mM HEPES-KOH (pH 7.4), 10 mM magnesium chloride, 6 to 10 mM potassium citrate, 4 mM glutathione reduced form, and 1.5 mg/ml bovine serum albumin) for 1 hour. […] Deprotonated ions of the substrate acetyl-CoA (AcCoA) and the reaction product malonyl-CoA (MalCoA) were detected, and the intensity of each signal was used to calculate a conversion rate to malonyl-CoA or succinyl-CoA, i.e., intensity of [MalCoA-H]—/(intensity of [MalCoA-H]-+intensity of [AcCoA.H].). […]

Take `CC(=O)N[C@@H](C)COC1CCC(Oc2nc3c(F)cc(OC4CCC4)cc3n2C)CC1` (some centres unmarked) [Compound I-1]: the negative logarithm of the IC50 (pIC50) (usually the negative decadic logarithm of the IC50, by convention in mol/L) is 8.29.

In the case of `CC(=O)N[C@@H](C)COC1CCC(Oc2nc3c(Cl)cc(OC4CC4)cc3n2C)CC1` (some centres unmarked) [Compound I-3], the pIC50 was 8.18.

Source of the values: patent US20250041279A1, “THERAPEUTIC MEDICINE FOR HEART DISEASE OR SKELETAL MUSCLE DISEASE” (SHIONOGI & CO., LTD., priority 2021, published 2025).
